Measurements reported in ChEMBL document CHEMBL2177033, “N-substituted phenoxazine and acridone derivatives: structure-activity relationships of potent P2X4 receptor antagonists” (J Med Chem, 2012).

Legend:
[1] = test system: 1321-N1; assay: Selectivity ratio of IC50 for rat P2X4 receptor to IC50 for human P2X4 receptor expressed in 1321N1 cells
[2] = biological target: P2X purinoceptor 4 (Homo sapiens, UniProt Q99571); assay: Competitive antagonist activity at human P2X4 receptor expressed in 1321N1 cell membrane assessed as inhibition of [35S]ATPgammaS binding by scintillation counting

## Nc1ncnc2c1ncn2[C@@H]1O[C@H](COP(=O)(O)OP(=O)(O)OP(=O)(O)O)[C@H]2OC3(O[C@H]21)C([N+](=O)[O-])=CC(=[N+]([O-])[O-])C=C3[N+](=O)[O-] (some centres not stated) [TNP-ATP]
[1]
  Ratio IC50: 3
[2]
  inhibition: Dose-dependent effect
